The values below come from patent US12076411B2, “Anti-HER2 antibody-maytansine conjugates and methods of use thereof” (priority 2014, dated 2024).

One assay relates to NCI-N87 xenograft. Briefly: NCI-N87 xenograft in SCID mice, single dose (Example 2). The assay is classed as in vivo, C.B-17 SCID mice.
The test system of the next assay is NCI-N87 tumors. Briefly: Multidose efficacy study, NCI-N87 tumors in SCID mice (Example 2). The assay is classed as in vivo. The settings on record: 5 mg/kg once a week for four weeks. The method, then: Two linkers were used for a multidose efficacy study. […] The multidose study used NCI-N87 tumors in SCID mice. Animals were dosed (5 mg/kg) once a week for four weeks.

The next assay concerns NCI-N87 xenografts. Briefly: NCI-N87 xenograft in SCID mice, single dose (Example 1). The settings on record: for Log10 cell kill: single 5 mg/kg ADC dose.

Regarding “Linker 101: C-terminally aldehyde-tagged αHER2 antibody conjugated to maytansine drug-linker 101 (HIPS, Glu, PEG2)”, in the assay on NCI-N87 xenograft (single 5 mg/kg ADC dose), the Log10 cell kill is given as 1.24. For the same substance, the “survival (in words)” value in the assay on NCI-N87 xenograft (single 5 mg/kg dose, euthanized at 800 mm^3 or day 112) was “significant survival advantage”. The “activity against the smaller tumors (in words)” value with NCI-N87 tumors (dosing begun at 180 mm^3) was “highly active”. In addition, the “treated/control tumor volumes at day 42” value in the assay with NCI-N87 tumors (stated after the larger (400 mm^3) tumor arm) was found to be 0.39.
Trastuzumab [reference compound]: the “tumor growth (in words)” value with NCI-N87 xenografts (single 5 mg/kg dose) was “tumors continued to grow”.
Substance “αHER2 CH1 ADC: Trastuzumab with aldehyde tag in the CH1 domain (Tag C) conjugated to HIPS-Glu-PEG2-maytansine” displayed a Log10 cell kill in the assay with NCI-N87 xenografts of 0.83.
On to “αHER2 CT ADC: Trastuzumab with aldehyde tag at the heavy chain C-terminus (CT, Tag G) conjugated to HIPS-Glu-PEG2-maytansine”, for which the Log10 cell kill in the assay on NCI-N87 xenografts was 1.24. Further, in the assay on NCI-N87 xenografts (single 5 mg/kg dose, euthanized when tumors reached 800 mm^3), the “survival (in words)” value is “significant survival advantage”.
As to “αHER2 LC ADC: Trastuzumab with aldehyde tag in the light chain (LC) conjugated to HIPS-Glu-PEG2-maytansine”, the Log10 cell kill with NCI-N87 xenografts was found to be 1.08.
The same measure, in the same setting: then “αHER2-DM1 ADC: ADC made by conjugating trastuzumab through conventional lysine chemistry to SMCC-DM, comparator (DAR 3.4) [reference compound]”, with 1.03.
